Yeast mating assay 2: variants of the scFv Ab-95

Target: peptide PDVDLGDISGINAS, taken from heptad repeat 2 (HR2) of SARS-CoV-2 spike.

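The parent was found by panning a naive human phage display library on the peptide. Variants in AAYL52 differ from the parent at up to three CDR positions; double and triple changes were sampled at random. AlphaSeq pools MATa yeast showing the antibodies with MATalpha yeast showing the peptide. After mating in shaken culture at 30 °C for 16 h, diploids were selected and their barcode pairs sequenced. Scores were corrected for input abundance and mapped to Kd with protein pairs of known affinity run in the same pool. There are three technical replicates.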

Parent scFv Ab-95: VH joined to VL by the linker GGGGSGGGGSGGGGS. Changes lie in the light chain CDRs alone.
VH: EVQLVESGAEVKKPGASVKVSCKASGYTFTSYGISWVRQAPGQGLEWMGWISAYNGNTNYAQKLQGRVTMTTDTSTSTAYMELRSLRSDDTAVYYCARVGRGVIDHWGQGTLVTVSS
VL: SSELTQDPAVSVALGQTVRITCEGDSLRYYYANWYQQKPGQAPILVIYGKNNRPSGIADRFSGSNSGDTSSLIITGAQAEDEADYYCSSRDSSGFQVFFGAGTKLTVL

Sequences are complete VL domains.
Scale: log10 of Kd in nM, estimated from mating counts; low values are strong binders.
A mean of the replicates is given; it leaves out those without a signal.
Where no diploid with the target was found in any replicate, the entry reads "nd": below detection, most likely a poor binder, though not proof of it.
In this assay the parent's reference entry averaged 2.31; its copy inside this library read 2.25.
As a blank, each scFv also met three strains without target: over library AAYL52, 28% of these pairings were detected, typically at 3.91 and seldom below 2.90.

Variant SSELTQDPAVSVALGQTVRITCEGDSLEYYYLNWYQQKPGQAPILVIYTKNNRPSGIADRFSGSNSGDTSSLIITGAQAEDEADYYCSSRDSSGFQVFFGAGTKLTVL gave 3.63 (2 of 3 replicates).
Variant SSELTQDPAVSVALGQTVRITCEGDSLRYYYSNWYQQKPGQAPILVIYCKNNRPSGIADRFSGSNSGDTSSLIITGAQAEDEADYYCSSRDSSGFQSFFGAGTKLTVL gave nd (0 of 3 replicates).
Variant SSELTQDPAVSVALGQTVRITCNGDSLRYYYANWYQQKPGQAPILVIYGENNRPSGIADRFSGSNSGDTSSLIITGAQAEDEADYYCSSRDSSGFQVYFGAGTKLTVL gave 1.74 (3 of 3 replicates).
Variant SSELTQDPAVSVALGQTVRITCEGDSLRYYQPNWYQQKPGQAPILVIYGKNYRPSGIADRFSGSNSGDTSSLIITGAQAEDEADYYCSSRDSSGFQVFFGAGTKLTVL gave 1.24 (3 of 3 replicates).
Variant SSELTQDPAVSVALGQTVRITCEGDYLRYYYANWYQQKPGQAPILVIYGKNNRESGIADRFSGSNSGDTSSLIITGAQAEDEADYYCSSRDESGFQVFFGAGTKLTVL gave 4.79 (1 of 3 replicates).
Variant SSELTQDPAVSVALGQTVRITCEGDSLRYYYANWYQQKPGQAPILVIYGKVNRPSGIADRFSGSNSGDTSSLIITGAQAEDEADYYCSSRDSSANQVFFGAGTKLTVL gave 4.91 (1 of 3 replicates).
Variant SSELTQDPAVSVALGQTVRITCIGDSLRYYYANWYQQKPGQAPILVIYGKNNRPSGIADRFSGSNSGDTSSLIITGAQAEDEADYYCSSRVRSGFQVFFGAGTKLTVL gave 2.72 (3 of 3 replicates).
Variant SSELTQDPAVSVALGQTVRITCEGDSLRYYYANWYQQKPGQAPILVIYGKNNKPSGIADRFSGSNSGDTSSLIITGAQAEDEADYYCSSRDSSGSQKFFGAGTKLTVL gave nd (0 of 3 replicates).

Second part, the sequence after the result:

4.80 (2 of 3 replicates) for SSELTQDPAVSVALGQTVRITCEGDSLRYYYKNWYQQKPGQAPILVIYGKNNEPQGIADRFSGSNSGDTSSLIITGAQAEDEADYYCSSRDSSGFQVFFGAGTKLTVL.
4.44 (1 of 3 replicates) for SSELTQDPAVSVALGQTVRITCEGDSLRYYYAWWYQQKPGQAPILVIYGKNNRPSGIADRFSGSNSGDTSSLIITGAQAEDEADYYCSSRDSSGFSVFFGAGTKLTVL.
3.46 (1 of 3 replicates) for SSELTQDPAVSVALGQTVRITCEGDSLRYYYANWYQQKPGQAPILVIYGKNNWMSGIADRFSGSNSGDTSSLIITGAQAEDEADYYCSSRDSSGFQVFFGAGTKLTVL.
2.95 (3 of 3 replicates) for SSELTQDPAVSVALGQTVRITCEGHSLRYYYANWYQQKPGQAPILVIYGKGGRPSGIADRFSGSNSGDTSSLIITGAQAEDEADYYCSSRDSSGFQVFFGAGTKLTVL.
3.84 (1 of 3 replicates) for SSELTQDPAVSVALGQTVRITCDGDSLRYYYAFWYQQKPGQAPILVIYGKNNRPSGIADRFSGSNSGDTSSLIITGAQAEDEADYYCMSRDSSGFQVFFGAGTKLTVL.
4.42 (2 of 3 replicates) for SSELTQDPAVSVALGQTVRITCEFESLRYYYANWYQQKPGQAPILVIYGKNNRDSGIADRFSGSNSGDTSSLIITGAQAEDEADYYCSSRDSSGFQVFFGAGTKLTVL.
1.25 (3 of 3 replicates) for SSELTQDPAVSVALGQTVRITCEGDSLRYGYANWYQQKPGQAPILVIYGKNNRNSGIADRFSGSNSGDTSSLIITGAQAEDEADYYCSSRDSSGFQVWFGAGTKLTVL.
3.43 (3 of 3 replicates) for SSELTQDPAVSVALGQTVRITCEGDSLRYYYNNWYQQKPGQAPILVIYGKNNRPSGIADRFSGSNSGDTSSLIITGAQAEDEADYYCSSRDSSGFCVFFGAGTKLTVL.

Again, the first 2 entries without any signal:

Variant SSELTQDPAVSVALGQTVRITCEGDSLRYYYSNWYQQKPGQAPILVIYCKNNRPSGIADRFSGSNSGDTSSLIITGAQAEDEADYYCSSRDSSGFQSFFGAGTKLTVL showed nd (0 of 3 replicates).
Variant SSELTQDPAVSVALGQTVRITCEGDSLRYYYANWYQQKPGQAPILVIYGKNNKPSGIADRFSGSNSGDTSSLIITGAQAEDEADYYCSSRDSSGSQKFFGAGTKLTVL showed nd (0 of 3 replicates).

Reference: Engelhart et al. 2022, doi:10.1038/s41597-022-01779-4. File: FLAb, binding data.